The source of these data is US10532109B2, “Peptide-DNA chimeras for treatment of HER overexpressing cancers” (ARIZONA BOARD OF REGENTS ON BEHALF OF ARIZONA STATE …, priority 2016, dated 2020).

Test [1] concerns BT474 human breast cancer cells (overexpression of HER2). The settings on record: literature report; 72 hour exposure; cited from earlier work.
Test [2] shares this test system. Kind of test: Cancer cell inhibition assay (MTT), BT474. Format: cell-based. As to the method:
BT474 human breast cancer cells (ATCC® HTB-20™, overexpression of HER2) and MDA-MB-231 human breast cancer cells (ATCC® HTB-26™, low expression of HER2 receptor) were cultured at 37° C. in a 5% CO2 atmosphere and grown in Gibco® RPMI 1640 medium supplemented with 10% fetal bovine serum (FBS) and 1% antibiotic-antimycotic mix antibiotic supplement before use.
Exponentially growing BT474 cells and MDA-MB-231 cells were harvested and plated in 96-well plates at a concentration of 2×10^4 cells/well for BT474 cells and 5×10^4 cells/well for MDA-MB231 cells. After incubation at 37° C. for 24 hours, the cells were treated with trastuzumab, DNA tetrahedron-affibody III and DNA tetrahedron-affibody-doxorubicin nanoparticle IV (1:50 III-doxorubicin) at different concentrations for an additional 48, 72, or 96 hours. Then 20 μL of MTT (5 mg/mL) was added to each well and the plates were incubated at 37° C. for 4 hours. The supernatant was discarded, and 100 μL of DMSO was added to each well. The absorbance was recorded at 490 nm after 15 minutes. Inhibition of cell growth was obtained by the following formula: […]
Data are reported as the mean of three independent experiments, each run in quintuplicate.

In the case of trastuzumab, the “concentration required for 30% cell growth inhibition (IC30)” value in test [1] was 0.23 µM. Moreover, in test [2], the “dose dependence of inhibition of BT474 cells” value is “not dose-dependent”. Also, the “inhibitory activity toward HER2 overexpressing breast cancer cells (in words)” value in test [2] (III compared with trastuzumab) is given as “very low activity”. The “highest inhibition of BT474 cells” value in test [2] (over the same concentration range (up to 100 nM), 72 or 96 hours) was “approximately 7%”.
